By UniProt entry, the sequences of proteins in these tests, tags left out.
UniProt P11712, whole entry: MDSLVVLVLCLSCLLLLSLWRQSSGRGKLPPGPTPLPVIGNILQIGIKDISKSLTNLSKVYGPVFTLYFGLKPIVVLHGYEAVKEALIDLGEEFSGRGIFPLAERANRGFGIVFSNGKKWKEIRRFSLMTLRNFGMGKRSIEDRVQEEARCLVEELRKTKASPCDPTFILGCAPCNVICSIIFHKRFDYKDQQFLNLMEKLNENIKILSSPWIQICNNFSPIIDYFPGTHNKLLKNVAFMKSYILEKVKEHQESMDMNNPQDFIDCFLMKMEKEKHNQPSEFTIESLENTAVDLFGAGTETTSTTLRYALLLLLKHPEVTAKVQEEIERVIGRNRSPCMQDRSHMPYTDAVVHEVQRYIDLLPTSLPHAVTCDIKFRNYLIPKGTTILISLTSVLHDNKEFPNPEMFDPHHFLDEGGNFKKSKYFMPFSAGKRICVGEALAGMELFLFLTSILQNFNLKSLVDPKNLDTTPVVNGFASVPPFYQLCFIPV

The entries are a selection whose mix differs from that of the whole data set. Activity calls are given as the source filed them.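 Rule for the calls: active = activation factor of 2 or more for CYP2C9 at a 5 µM dose; inactive = the rest.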
These molecules were tested against Cytochrome P450 2C9 (Homo sapiens) (UniProt P11712) (assay: enhancers of cytochrome P450 2C9 turnover – biochemical, luminescence, primary screen (AID 1024;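 note: 0 = sulfaphenazole-blocked wells and 1 = vehicle-only wells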)). Settings: recombinant CYP2C9, luciferin-H conversion, at 5 µM, active compounds read high, factor 1 = untreated enzyme, 0 = blocked.
With `Cc1cc(C)cc(OP(C)(=O)Nc2ccc(C)cc2C)c1` (stereo not given) the activation factor was inactive: 0.6.
In the case of `Cc1ccc(C)c(NP(C)(=O)Oc2ccccc2)c1` (stereo not given), the activation factor was inactive: 1.1.
For `Cc1cc(C)cc(OP(C)(=O)Nc2ccccn2)c1` (stereo not given), the activation factor was inactive: 0.9.
With `Cc1nc2ccc3ccccc3c2s1.O=[N+]([O-])c1cc([N+](=O)[O-])c(O)c([N+](=O)[O-])c1` the activation factor was inactive: 0.9.
`CP(=O)(NC(=O)Nc1ccccc1)Oc1ccccc1` (stereo not given) was tested, and the activation factor was inactive: 1.2.
`CP(=O)(Nc1ccccn1)Oc1ccc(Cl)cc1` (stereo not given) was tested, and the activation factor was inactive: 1.
In the case of `CCOP(C)(=S)SCC(=O)NC(C)C(=O)O` (stereo not given), the activation factor was inactive: 0.5.
For `CP(=S)(Nn1cnnc1)Oc1ccccc1` (stereo not given), the activation factor was inactive: 0.7.
For `COc1ccc(OP(C)(=O)Nc2cccc(F)c2)cc1` (stereo not given), the activation factor was inactive: 0.5.
`COc1ccccc1OP(C)(=O)Nc1ccc(C)cc1` (stereo not given) was tested, and the activation factor was inactive: 0.9.
For `Cc1ccc(NP(C)(=O)Oc2ccccc2)c(C)c1` (stereo not given), the activation factor was inactive: 0.7.
`COc1ccc(OP(C)(=O)Nc2ccccn2)cc1` (stereo not given) was tested, and the activation factor was inactive: 1.
`CN(C)CCOC(=O)C(O)(c1ccccc1)C1CCCC1` (stereo not given) was tested, and the activation factor was inactive: 0.9.
In the case of `CP(=O)(Nc1ccccn1)Oc1ccccc1` (stereo not given), the activation factor was inactive: 1.1.
`COc1ccccc1OP(C)(=O)Nc1ccc(C)cc1C` (stereo not given) was tested, and the activation factor was inactive: 1.
With `CCc1ccc(OP(C)(=O)O)cc1` the activation factor was inactive: 1.
In the case of `Cc1c(NP(C)(=O)Oc2ccc(C(C)C)cc2)c(=O)n(-c2ccccc2)n1C` (stereo not given), the activation factor was inactive: 0.7.
In the case of `COc1ccccc1OP(C)(=O)Nc1ccc(C)c(C)c1` (stereo not given), the activation factor was inactive: 1.1.
For `Cc1nc2ccc3ccccc3c2o1.O=[N+]([O-])c1cc([N+](=O)[O-])c(O)c([N+](=O)[O-])c1`, the activation factor was inactive: 0.8.
`CP(=O)(OC12CC3CC(CC(C3)C1)C2)OC12CC3CC(CC(C3)C1)C2` was tested, and the activation factor was inactive: 1.1.
With `COc1ccccc1OP(C)(=O)Nc1c(C)n(C)n(-c2ccccc2)c1=O` (stereo not given) the activation factor was inactive: 1.
In the case of `CP(=O)(Oc1ccccc1)N1CCOC1=O` (stereo not given), the activation factor was inactive: 1.1.
In the case of `CCN(CC)CC(O)COC(=O)C(O)(c1ccccc1)C1CCCCC1` (stereo not given), the activation factor was inactive: 1.
In the case of `CC(C)(C)c1ccc(OP(C)(=O)O)cc1`, the activation factor was inactive: 1.
In the case of `CCOP(C)(=S)SCC(=O)NC(C)(CC)C(=O)O` (stereo not given), the activation factor was inactive: 0.5.
In the case of `Cc1ccccc1NP(C)(=O)Nc1ccccc1C`, the activation factor was inactive: 0.8.
With `CN(C)CCOC(=O)C(O)(c1ccccc1)C1CCCCC1` (stereo not given) the activation factor was inactive: 0.9.
`COc1ccc(OP(C)(=O)Nc2cccc(Br)c2)cc1` (stereo not given) was tested, and the activation factor was inactive: 0.7.
For `CP(=O)(Nc1ccccc1)Oc1ccc(F)cc1` (stereo not given), the activation factor was inactive: 1.2.
With `CP(=O)(Nc1ccccc1F)Oc1ccccc1` (stereo not given) the activation factor was inactive: 0.9.
